In US20230364109A1, “GANAXOLONE FOR USE IN TREATMENT OF SUPER REFRACTORY STATUS EPILEPTICUS” (MARINUS PHARMACEUTICALS, INC., priority 2020, published 2023):

Test system: benzodiazepine-resistant SE
Settings: experimental animals

## CC(=O)[C@H]1CC[C@H]2[C@@H]3CC[C@H]4C[C@](C)(O)CC[C@]4(C)[C@H]3CC[C@]12C [ganaxolone, 3α-hydroxy-3β-methyl-5α-pregnan-20-one]
  effect on benzodiazepine-resistant SE (convulsions, EEG seizure activity, survival): immediate and prolonged cessation of benzodiazepine-resistant SE
